# Yeast mating assay B: variants of the scFv Ab-14

Source: Li et al. 2023 (doi:10.1038/s41467-023-39022-2), MIT Lincoln Laboratory and A-Alpha Bio; data file from the FLAb repository.

Antigen: PDVDLGDISGINAS, a 14-residue peptide of the SARS-CoV-2 spike HR2 region.

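The parent was found by panning a naive human phage display library on the peptide. Designed CDR sequences, proposed from the first random library and measured here. Group labels follow the data file (Ctrl: baseline library sampled from a position-specific scoring matrix, with some repeated check sequences; En: ensemble of fine-tuned language models; GP: Gaussian process model; HC: hill climbing; Gen: genetic algorithm; Gibbs: Gibbs sampling; a sequence that several methods proposed may carry one label only). AlphaSeq pools MATa yeast showing the antibodies with MATalpha yeast showing the peptide. Mating (16 h, 30 °C) was followed by selection of diploids and sequencing of their barcodes. The ratio of observed to expected reads was calibrated, replicate by replicate, on BCL2-family standards whose Kd was known from biolayer interferometry. Mating was done six times.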

The variants keep the heavy chain, the linker and the frameworks of Ab-14 (scFv order VH, a 15-residue (Gly4Ser)3 linker, VL).
VH: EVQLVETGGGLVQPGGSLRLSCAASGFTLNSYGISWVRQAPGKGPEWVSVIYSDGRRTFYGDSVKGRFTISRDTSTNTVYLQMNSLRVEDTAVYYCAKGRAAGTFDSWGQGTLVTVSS
VL: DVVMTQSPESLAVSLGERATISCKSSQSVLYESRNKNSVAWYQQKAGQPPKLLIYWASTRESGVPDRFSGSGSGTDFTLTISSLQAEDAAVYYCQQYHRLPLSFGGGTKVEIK

The parent's light chain CDRs are KSSQSVLYESRNKNSVA, WASTRES, QQYHRLPLS; each variant's own CDRs replace them letter for letter. The Kd shown is the geometric mean over detected replicates; a lower Kd is a better binder. "not detected" means that the variant was in the library but no mating with the target was seen in any replicate; the authors take this as a sign of poor binding, and no number exists. Entries are sorted by rising average, undetected variants last. The authors' rule: three or more of the six replicates give a measured affinity, fewer mean a poor binder. As a blank, each scFv also met three strains without target: over all light chain designs, 4% of these pairings were detected, typically at 430 nM and seldom below 38 nM. For each scFv, signals with the empty controls are counted beside the result. Values of this round are not directly comparable with the first-round values of the same sequences. Of ten entries with the parent sequence, four were seen in most replicates (averages 2.2 nM to 240 nM), three in one and three in none, so single entries are noisy.

CDR-L1	CDR-L2	CDR-L3	group	apparent Kd	replicates with signal	empty controls
KLSQSMLYESRNHNNVA	AASDRES	QQYHRLPLS	GP_Gibbs	270 pM	6/6	1/18
KVSQSFLYESRNKNAVA	EASTRES	QQYHRLPLS	GP_Gen	360 pM	6/6	2/18
KSSQSGEMESRNKNNVA	DASQRES	QQYHRLPLS	GP_Gibbs	380 pM	6/6	1/18
KLPQSQLYESRNKNAVA	NASTRES	QQYHRLPLS	GP_Gen	460 pM	6/6	0/18
KVSQSVLYESRNKNAVA	NASTRES	QQYHRLPLS	GP_Gen	480 pM	6/6	3/18
KWSQSVLYESRNKNSVA	DASTRES	QQYHRLPLS	Ctrl	500 pM	6/6	0/18
KSSISYLYESRNKNSVA	GASTRES	QQYHRLPLS	GP_HC	590 pM	6/6	0/18
KLEQSWLYESRNKNSVA	NASTRLS	QQYHRLPLS	GP_Gen	590 pM	6/6	2/18
KVSQSQLYEERNKNNVA	QASDRMS	QQYHRLPLS	GP_Gibbs	680 pM	6/6	0/18
KVDQEVDYQSRNKNSVA	DASQREE	QQYHRLPLS	GP_Gibbs	790 pM	6/6	1/18
KLPQSWLYESRNKNSVA	NASTRMS	QQYHRLPLS	GP_Gen	810 pM	6/6	1/18
KLEQSIQYESRNKNSVA	NASTRES	QQYHRLPLS	GP_HC	810 pM	6/6	2/18
KMEQGELYESRNKNSVA	GASVRES	QQYHRLPLS	GP_HC	1.0 nM	6/6	0/18
QIYQAMHTLSQKKNNVA	DVNERGS	QQYYRLPLS	En_Gen	1.2 nM	6/6	2/18
KSGQQFLQEQRNKNSVA	DASLRES	QQYHRLPLS	GP_Gibbs	1.3 nM	6/6	0/18
KLMCSMEYESRNKNSVA	NASTREM	QQYHRLPLV	GP_Gibbs	1.5 nM	6/6	0/18
KLQQSWLYESRNKNSVA	HASTRMS	QQYHRLPLS	GP_Gen	1.5 nM	6/6	4/18
KQQQSDEGEQRNKNSVA	EASTRCM	QQYHRLPLS	GP_Gibbs	1.7 nM	6/6	1/18
KLSQSGLYESRNKNSVA	HASTRCS	QQYHRLPLS	GP_Gen	2.0 nM	6/6	0/18
TISQMTALFSQTINNVA	EVSTREN	QQYDRLPLM	En_Gen	2.2 nM	6/6	1/18
KSSQSVLQESRNQNSVA	EASTREV	QQYHRLPLS	GP_Gibbs	2.4 nM	6/6	0/18
KLEQSEGYESRNKNSVA	NASQRES	QQYHRLPLS	GP_Gen	2.4 nM	6/6	2/18
KVRQSTLYESRNKNSVA	YASTRES	QQYHRLPLS	GP_HC	2.5 nM	6/6	2/18
KVSQAQDYESRNKNSVA	QASHREQ	QQYHRLPLS	GP_Gibbs	2.7 nM	6/6	1/18
KLQQSYLYESRNKNSVA	NASTREV	QQYHRLPLS	GP_Gen	2.8 nM	6/6	1/18
TISQSANMESHNKNSVA	DLNVRGS	QQYDRLPLS	En_HC	3.3 nM	6/6	1/18
KLDLSMSYSHEGRRAIA	NADALVI	QQYHRLPLI	En_Gibbs	3.6 nM	6/6	1/18
KLMQSTLYESRNANNVA	YASTRES	QQYHRLPLS	GP_Gibbs	3.9 nM	6/6	0/18
HLSDSVLYESRNKNSVA	NASTRES	QQYHRLPLD	GP_HC	4.2 nM	6/6	1/18
KIGMQVTYQSTVNNAIA	QMTTREE	QQYHRLPLS	En_HC	5.2 nM	6/6	0/18
KLMQSQLYESRMKNSVA	NASQRES	QQYHRLPLS	GP_Gen	7.0 nM	6/6	0/18
KISQMYRYEQQNHSSIA	EASTREN	QSYHRLPLS	En_HC	8.9 nM	6/6	2/18
KLSMITGHMSTIKNNVA	EMETREE	QQYNRLPLA	En_Gen	9.9 nM	6/6	1/18
KMSQSVLYESRNKNSVA	WSSTRES	QQYCRLPLS	Ctrl	13 nM	6/6	1/18
KSSQSWLYESRNKNSVA	HASTREQ	QQYHRLPLS	GP_HC	13 nM	6/6	1/18
HMSMLTLGGLKERNSVA	QMTTREN	QQYDRLPLA	En_Gen	15 nM	6/6	0/18
FLEYASDQTGLQGNAIA	QVNLKEN	QQYMRLPLA	En_Gibbs	21 nM	4/6	0/18
ILSQSVLMGMHTKNSVA	QASMRFN	QQYDRLPLM	En_HC	24 nM	6/6	0/18
KSQQAVLYESRNKNSVA	GASLRES	QQYHRLPLS	GP_HC	24 nM	1/6	0/18
MSYGGDMLESATRNSVA	NAETRED	QDYHRLPLS	En_HC	28 nM	6/6	0/18
KISMLLNMTFEASNNVA	EMVTREK	QQYNRLPLS	En_Gen	62 nM	6/6	0/18
TIGQTLMIGVRNRSNVA	EVSERLN	QQYDRLPLM	En_Gen	70 nM	6/6	0/18
NMGGTKEEQSNEIGNIA	EMNERFA	QQYFQLPLS	En_Gibbs	100 nM	6/6	1/18
KSEQSVLYESRNKNSVA	RARTRES	QQYHRLPLS	Ctrl	170 nM	2/6	0/18
KSSQSVLYESRNKNSVA	WASTRRS	QQYHRLPLS	Ctrl	290 nM	4/6	1/18
KSNQSVLYESRNYTSVA	WASTRES	QQYHRLPLS	Ctrl	390 nM	1/6	0/18
KMTEQLLNGEREPSSIA	AGVIGSD	QQYHQLPLI	En_Gibbs	910 nM	5/6	0/18
KQSQSVMYESRNKNSVA	WATTRES	QQYHRLPLS	Ctrl	not detected	0/6	0/18
KSSQSVLKESRNENSVA	WASTRES	QQYCRLPLS	Ctrl	not detected	0/6	0/18
FSLQSVEYESRNPNSVA	WASTRES	QMYHRLPLS	Ctrl	not detected	0/6	0/18
RSSQSVLYTHRNKQSVA	WASTRES	QQYHRLPLS	Ctrl	not detected	0/6	0/18
KSSQSVLYESRNKNSVA	WASTRGS	QQYHRLPLS	Ctrl	not detected	0/6	0/18
KSSQSVLYEGINKNSVA	WSSTPES	QQYHRLPLS	Ctrl	not detected	0/6	0/18

For reference, 5 entries of the list once more:

| CDR-L1 | CDR-L2 | CDR-L3 | group | apparent Kd | replicates with signal | empty controls |
|---|---|---|---|---|---|---|
| KLMQSQLYESRMKNSVA | NASQRES | QQYHRLPLS | GP_Gen | 7.0 nM | 6/6 | 0/18 |
| KVRQSTLYESRNKNSVA | YASTRES | QQYHRLPLS | GP_HC | 2.5 nM | 6/6 | 2/18 |
| KQQQSDEGEQRNKNSVA | EASTRCM | QQYHRLPLS | GP_Gibbs | 1.7 nM | 6/6 | 1/18 |
| KLPQSWLYESRNKNSVA | NASTRMS | QQYHRLPLS | GP_Gen | 810 pM | 6/6 | 1/18 |
| KLEQSWLYESRNKNSVA | NASTRLS | QQYHRLPLS | GP_Gen | 590 pM | 6/6 | 2/18 |